This assay has as its system Hela cells. In words: Anti-Fas antibody- and TRAIL-induced apoptosis in Hela cells. In kind it is cell-based, human. The note with it: Ku70 overexpression, 1 μg/ml anti-Fas antibody or 100 ng/ml TRAIL, 24 hours. On the procedure: FIG. 3. Lowering Ku70 protein levels sensitized cells to apoptotic stimuli. […] One million of HEK293T cells (A and C) or HeLa cells (B, D, and E) were transfected with 2.0 μg pcDNA3 (Vector) or pcDNA3-reversed cDNA of Ku70 (antisense (AS) Ku70). Twenty-four hrs later, cells were collected and the levels of Ku70 as well as β-Tubulin were examined using total cell lysates (20 ug protein/lane). FIG. 3A: HEK293T cells (10^6 cells) were transfected with 2.0 μg pcDNA3 (Vector) or pcDNA3-antisense Ku70 (ASKu70). One day following transfection, cells were transfected with 0.5 μg pEGFP and 1.0 μg pcDNA3 (Vector) or pcDNA3-Bax (Bax). One day following the second transfection, the number of apoptotic cells was determined as described in FIG. 1. […] The number of apoptotic cells was measured as described in FIG. 1. […] One day following UVC-irradiation, the number of apoptotic cells was determined as described in FIG. 1. […] The number of apoptotic cells was measured as described in FIG. 1. […] Total cell lysates containing 20 ug protein were analyzed in each lane. […] MEFs derived from Ku70-proficient (Ku70+/+), Ku70-heterozygous (Ku70 +/−) or Ku70-deficient (Ku70−/−) mice were treated with STS (200 nM) or UVC-irradiation (200 J/m^2), and apoptotic cells were counted at the indicated periods as described in FIG. 1. […]

One substance from patent publication US20070036775A1, “Method of modulating or examining Ku70 levels in cells” (priority 2001, published 2007) can be followed below.

With “Ku70: human full length Ku70, 70 kDa subunit of Ku-complex (609 amino acids), expressed from pCMV-2B plasmid”, the “effect on Fas- and TRAIL-induced apoptosis” value was “did not suppress apoptosis”.
